# Measured values reported in patent US3932650A, “Trans-octahydropyridoindolobenzazepines as central nervous system depressants” (E. I. Du Pont de Nemours & Company, priority 1973, dated 1976).
# Test system: phenyl-p-benzoquinone-induced writhing
# Experiment: Phenylquinone Writhing (P.Q.W.)
# Type: in vivo, mouse
# Conditions: analgesic; more potent than codeine phosphate
smiles,measurement,value
CN1CC[C@@H]2[C@@H](C1)c1cccc3c1N2c1ccccc1CC3 (relative stereo),potency relative to codeine phosphate,about 10 X
